Measurements reported in publication PMC3464052 (Journal of medicinal chemistry, 2012).

Sequences of proteins named here, by UniProt entry; tags and fusion partners are left off. A change or cut given only in a name is not applied to a line headed by its entry.
UniProt I6L8L2: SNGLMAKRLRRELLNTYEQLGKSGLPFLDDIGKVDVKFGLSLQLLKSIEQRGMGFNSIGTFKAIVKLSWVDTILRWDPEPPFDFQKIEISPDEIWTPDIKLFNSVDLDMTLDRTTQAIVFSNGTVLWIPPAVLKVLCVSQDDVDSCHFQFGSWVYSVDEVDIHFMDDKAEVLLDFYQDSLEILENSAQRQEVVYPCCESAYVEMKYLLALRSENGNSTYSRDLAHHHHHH

Molecular target: Ct-AChBP (Capitella teleta, UniProt I6L8L2)
Experiment: biochemical
Assay type: binding

Q: Which Ki does the source give for `CN1CCC[C@H]1c1cccnc1` [compound 1, nicotine, reference compound] here?
A: The Ki was 496 ± 30 nM.
